Source: BindingDB's records for 35696861
pIC50: −log10 of the molar value.

Sequences of proteins named here, by UniProt entry; tags and fusion partners are left off.
UniProt P14902, whole entry, looked up: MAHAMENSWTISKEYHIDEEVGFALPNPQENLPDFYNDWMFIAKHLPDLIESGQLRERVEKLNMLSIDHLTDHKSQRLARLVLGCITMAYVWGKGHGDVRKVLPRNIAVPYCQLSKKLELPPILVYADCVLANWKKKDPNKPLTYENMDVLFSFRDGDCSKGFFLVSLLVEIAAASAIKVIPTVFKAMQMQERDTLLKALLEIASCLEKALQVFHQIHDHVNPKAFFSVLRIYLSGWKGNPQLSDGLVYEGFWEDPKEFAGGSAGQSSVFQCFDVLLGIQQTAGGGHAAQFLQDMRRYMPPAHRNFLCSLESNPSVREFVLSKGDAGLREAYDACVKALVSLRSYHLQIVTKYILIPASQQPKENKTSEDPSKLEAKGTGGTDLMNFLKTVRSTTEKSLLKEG

Target: Indoleamine 2,3-dioxygenase 1 (Homo sapiens, UniProt P14902)

Molecule `COP(C)(=O)NCCCNc1nonc1/C(=N/O)Nc1ccc(F)c(Br)c1` (stereo unspecified) has a pIC50 of 4.02.
